The test system of data set [1] is mice.
In data set [2] the test system is DA secretion by PC12 cells. To be noted: 10 μM, 24 h incubation, 10 min 59 mM K+.
For data set [3] the following is noted: chronic, daily 0.5 mg/kg i.p., 4 weeks.
For data set [4], the system named is mice midbrain and brainstem.
Data set [5] deals with mice. This is another data set of the same source.
Data set [6] deals with mice. As to conditions: chronic, daily 0.5 mg/kg i.p.; tendency, significant only in week 4 in response to 10 mg/kg.
For data set [7], the system named is mice. The source holds these as a separate data set.
[8] abbreviates: chronic, daily 0.5 mg/kg i.p., 4 weeks.
Setting [9] is: acute, 10 mg/kg, 1 h after treatment.

Molecules are shown by their SMILES.

This note sets out measurements from publication PMC12067442 (Journal of Medicinal Chemistry, 2025).

Turning to `c1ccc(CN2CCCC[C@H]3NCC[C@H]32)cc1` [(R,R)-1a, (3aR,8aR)-4-Benzyldecahydropyrrolo[3,2-b]azepine], the core body temperature result in the data set on mice [1] (acute, 1.0 or 10 mg/kg i.p.) is listed as “significant decrease”. The “body temperature upon weekly inspection” value in the data set on mice [1] (setting [8]) is reported as “unchanged”. The “vesicular secretion of monoamines (DA) induced by 59 mM K+” value in data set [2] is “did not affect”. Moreover, the “Glycine Ion Channel (5 µM)” value with Glycine Ion Channel was found to be 28.3. Moreover, in data set [3], the “body weight between treated and control mice at the end of the study period” value is on record as “lack of decrease”. In addition, in data set [4] (setting [9]), the “NE, 5-HT and adenosine levels in the midbrain and 5-HT levels in the brainstem” value is “significantly decreased”; the “other neurotransmitters (DA, γ-aminobutyric acid, acetylcholine, glutamate, glycine)” value was “not affected”. Besides, in data set [4] (chronic exposure), the “neurotransmitter levels in the midbrain and brainstem” value is “did not yield significant changes”. Further, in the data set on Glutamate Ion Channel, the “Glutamate Ion Channel (5 µM)” value is recorded as 7.5. For the same molecule, the “mobility in the light/dark box task” value with mice [5] (acute, 1.0 or 10 mg/kg i.p.) is “dramatically decreased mobility”. In addition, in the data set with mice [5] (chronic, daily 0.5 mg/kg i.p.), the “behavior in the light/dark box assay, treated versus control” value was “no significant difference in behavior”. Besides, the “mobility in the tail suspension test compared to controls” value in the data set on mice [6] is on record as “increased mobility”. For the same molecule, the “motor coordination (Rotarod task)” value in the data set on mice [7] (acute, 1.0 or 10 mg/kg i.p.) is on record as “severe deficits in motor coordination”. Also, the “motor coordination (Rotarod)” value in the data set with mice [7] (setting [8]) was “only slightly affected in week 1”.
